Measurements reported in US10336752B2, “TYK2 inhibitors, uses, and methods for production thereof” (Nimbus Lakshmi, Inc., priority 2017, dated 2019).

Tested on: IL-12 induced pSTAT4 in human PBMC
Assay: cells
Conditions: 0.5 h, read-out: IC50 IL-12 Induced pSTAT4 in human PBMC
Experimental: Human PBMC are isolated from buffy coat and are stored frozen for assays as needed. […] 15 μl of compound or DMSO is added to the well at the desired concentrations and incubated at 1 hr at 37 C. […] The final DMSO concentration of compound in the assay is 0.1%.

SMILES	IC50
O=C1NCc2nc(-c3c(F)cccc3F)cc(Nc3ccc(C(=O)N4CCCC4)cc3)c21 [Compound 1]	< 150 nM
[2H]C1([2H])NC(=O)c2c(Nc3ccc(C(=O)N4CCCC4)cc3)cc(-c3c(F)cccc3F)nc21 [Compound 2]	< 150 nM
[2H]C1([2H])NC(=O)c2c(Nc3ccc(C(=O)N4C([2H])([2H])CCC4([2H])[2H])cc3)cc(-c3c(F)cccc3F)nc21 [Compound 3]	< 150 nM
[2H]C1([2H])NC(=O)c2c(Nc3ccc(C(=O)N4C([2H])([2H])C([2H])([2H])C([2H])([2H])C4([2H])[2H])cc3)cc(-c3c(F)cccc3F)nc21 [Compound 4]	< 150 nM
[2H]C1([2H])N(C(=O)c2ccc(Nc3cc(-c4c(F)cccc4F)nc4c3C(=O)NC4)cc2)C([2H])([2H])C([2H])([2H])C1([2H])[2H] [Compound 5]	< 150 nM
